Earlier results, collected in US20010051628A1, “METHODS TO MODULATE THE RESISTANCE OF CELLS TO APOPTOSIS MEDIATED BY MUTANT EPIDERMAL GROWTH FACTOR RECEPTORS” (priority 1998, published 2001).

Target: ΔEGFR (Homo sapiens, UniProt P00533, DELINS30-297G)
Conditions: cited from earlier work

For `COc1cc2ncnc(Nc3cccc(Cl)c3)c2cc1OC` [AG1478], the “specificity for inhibition of ΔEGFR, relative to wt EGFR” value is given as “more than 10 fold”.
